From patent publication US6359134B1 come the findings set out here.

Amino acid sequences for entries named in this document (tags omitted). Residues count along the entry.
UniProt P00742, 235-488 limits assumed: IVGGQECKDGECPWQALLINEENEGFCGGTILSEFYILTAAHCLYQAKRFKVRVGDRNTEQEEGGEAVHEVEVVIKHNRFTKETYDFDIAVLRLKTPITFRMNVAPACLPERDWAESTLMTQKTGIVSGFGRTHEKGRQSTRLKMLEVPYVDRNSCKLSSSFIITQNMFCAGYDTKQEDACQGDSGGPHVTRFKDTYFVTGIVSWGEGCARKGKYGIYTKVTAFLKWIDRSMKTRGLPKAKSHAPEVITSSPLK
UniProt P00742, 41-179 partner limits assumed: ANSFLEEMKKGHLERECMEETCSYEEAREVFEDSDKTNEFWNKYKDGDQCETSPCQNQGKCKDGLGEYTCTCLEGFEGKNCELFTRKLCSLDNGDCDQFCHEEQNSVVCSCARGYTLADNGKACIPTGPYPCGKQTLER

The target in the assay is human FXa (Homo sapiens, UniProt P00742). Briefly: Inhibitory effect on human activated coagulation factor X (FXa). As to conditions: human FXa (0.3 unit/ml), substrate S-2765, 37° C., absorbance at 405 nm. As for the experimental part: Inhibitory effect on human activated coagulation factor X (FXa)
In 0.05M Tris buffer solution (pH 8.3) 225 μl containing 0.145 M sodium chloride and 2 mM calcium chloride, test compound dissolved in dimethyl-sulfoxide 5 μl and human FXa (0.3 unit/ml) 10 μl were reacted at 37° C. for 10 minutes. To the reaction solution was added substrate (3 mM, S-2765) 10 μl and the mixture was further reacted at 37° C. for 10 minutes. To the reaction solution was added 50% acetic acid aqueous solution 25 μl to stop the reaction.
IC50 values (concentration of the test compound which inhibits 50% of FXa activity) were calculated by measuring change of absorbance at 405 nm with microplate reader (MTP-32, Corona Electric).

By IC50 is commonly meant the concentration needed to halve the response being measured. For `Cc1nc(-c2ccncc2)sc1C(=O)N1CCN(S(=O)(=O)c2ccc3cc(Cl)ccc3c2)CC1`, the IC50 is 19 nM.
